The source of these data is patent publication US6475746B1, “Method of obtaining a composition comprising a 5-HT1D selective compound” (Synaptic Pharmaceutical Corporation, priority 1990, dated 2002).

Sequences of proteins named here, by UniProt entry; tags and fusion partners are left off. A change or cut given only in a name is not applied to a line headed by its entry.
UniProt P11614, whole entry: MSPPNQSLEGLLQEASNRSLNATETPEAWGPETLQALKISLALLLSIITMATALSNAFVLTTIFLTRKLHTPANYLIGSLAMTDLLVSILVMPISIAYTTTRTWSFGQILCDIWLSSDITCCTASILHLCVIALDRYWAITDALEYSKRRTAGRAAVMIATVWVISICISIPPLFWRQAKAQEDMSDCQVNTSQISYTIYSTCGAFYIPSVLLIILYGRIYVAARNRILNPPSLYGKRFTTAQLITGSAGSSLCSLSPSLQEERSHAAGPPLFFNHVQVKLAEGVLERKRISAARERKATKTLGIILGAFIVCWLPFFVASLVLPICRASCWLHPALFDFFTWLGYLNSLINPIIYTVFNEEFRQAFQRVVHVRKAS
UniProt P28221: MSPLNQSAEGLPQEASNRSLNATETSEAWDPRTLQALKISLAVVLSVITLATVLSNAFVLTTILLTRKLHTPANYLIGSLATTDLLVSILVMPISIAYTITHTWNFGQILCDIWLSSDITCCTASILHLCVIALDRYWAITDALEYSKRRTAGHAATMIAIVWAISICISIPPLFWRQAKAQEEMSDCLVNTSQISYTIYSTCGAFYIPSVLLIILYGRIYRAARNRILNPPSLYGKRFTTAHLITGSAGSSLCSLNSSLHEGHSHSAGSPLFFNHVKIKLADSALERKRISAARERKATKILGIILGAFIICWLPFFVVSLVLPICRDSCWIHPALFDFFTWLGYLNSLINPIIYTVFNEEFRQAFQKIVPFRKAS
UniProt P28222, whole entry: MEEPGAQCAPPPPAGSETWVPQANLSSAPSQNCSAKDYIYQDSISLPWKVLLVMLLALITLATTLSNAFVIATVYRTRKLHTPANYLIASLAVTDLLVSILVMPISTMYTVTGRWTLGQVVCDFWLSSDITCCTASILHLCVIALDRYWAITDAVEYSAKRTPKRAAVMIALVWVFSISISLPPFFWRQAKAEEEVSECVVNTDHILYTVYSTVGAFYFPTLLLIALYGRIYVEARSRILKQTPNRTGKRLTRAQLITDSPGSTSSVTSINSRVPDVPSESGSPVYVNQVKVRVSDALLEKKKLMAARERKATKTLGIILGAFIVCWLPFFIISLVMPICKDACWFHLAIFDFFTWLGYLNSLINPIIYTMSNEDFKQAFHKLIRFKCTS

Broadly, the Ki is a dissociation constant, usually derived from enzyme kinetics or from competition with a known ligand.

The target in assay [1] is Cloned Canine 5-HT1D-1 (RDC4) (Canis lupus familiaris, UniProt P11614). Briefly: [3H]5-HT binding to cloned canine 5-HT1D-1 (RDC4) in transfected cell membranes. The note with it: read-out: Estimated equilibrium dissociation constants (Ki values); [3H]5-HT displacement; membranes of LM (tk−) cells stably transfected; Cheng-Prusoff.
In a further assay the target is Cloned Human 5-HT1D-1 (Homo sapiens, UniProt P28221). Kind of assay: [3H]5-HT binding to cloned human 5-HT1D-1 (gene 8-30-84) in transfected cell membranes. The note with it: read-out: Estimated equilibrium dissociation constants (Ki values); [3H]5-HT displacement; membranes of LM (tk−) cells stably transfected; Cheng-Prusoff.
The next assay addresses Cloned Human 5-HT1D-2 (Homo sapiens, UniProt P28222). Kind of assay: [3H]5-HT binding to cloned human 5-HT1D-2 (gene 11) in transfected cell membranes. The following applies: read-out: Estimated equilibrium dissociation constants (Ki values).

`COc1ccc2[nH]cc(CCN)c2c1` [5-Methoxytryptamine]: the Ki in assay [1] was 31 ± 11 nM.

For the compound `COc1ccc2[nH]cc(CCN(C)C)c2c1` [5-methoxy-DMT], the Ki at Cloned Human 5-HT1D-1 is 4.4 ± 0.6 nM.

Consider Corynanthine, for which the Ki at Cloned Human 5-HT1D-2 is above 10000 nM.
